For five compounds, inhibition results are on record in ChEMBL document CHEMBL1133964, “Synthesis and biological data of 4-amino-1-(2-chloro-2-phenylethyl)-1H-pyrazolo[3,4-b]pyridine-5-carboxylic acid ethyl esters, a new series of A1-adenosine receptor (A1AR) ligands” (Bioorg Med Chem Lett, 2001).

For test [1], the system named is Adenosine receptor A3 (Bos taurus). The test can be described thus: Percent inhibition of [125I]AB-MECA binding at Adenosine A3 receptor in bovine cortical membrane at 10 uM.
In test [2] the test system is Adenosine receptor A2a (Bos taurus). Nature of the test: Percent inhibition of [3H]CGS-21680 binding to A2A adenosine receptor of bovine striatal membrane at 10 uM.

With `CCOC(=O)c1cnc2c(cnn2CC(Cl)c2ccccc2)c1N1CCCC1` (stereo not drawn), the inhibition in test [1] stood at 0%; in test [2], 17%. For `CCCNc1c(C(=O)OCC)cnc2c1cnn2CC(Cl)c1ccccc1` (stereo not drawn) the same measures were 23% and 11%. For `CCOC(=O)c1cnc2c(cnn2CC(Cl)c2ccccc2)c1NCCc1ccccc1` (stereo not drawn), the values for the inhibition in test [1] and in test [2] were 34% and 4%, respectively. The compound `CCOC(=O)c1cnc2c(cnn2CC(Cl)c2ccccc2)c1NC(C)(C)C` (stereo not drawn) gave an inhibition in test [2] of 19%.

In turn, `CCOCCNc1c(C(=O)OCC)cnc2c1cnn2CC(Cl)c1ccccc1` (stereo not drawn) showed an inhibition in test [2] of 2%.
